Measurements reported in PubChem BioAssay (NCATS).
The list shows a part of the results, in another mix than the full data. Records with an inconclusive call do not appear. For some assays here: Entries with a potency or affinity are not part of this list. The source made the active and inactive calls. Unless noted, calls come from the whole dose curve; as a rule, active = well fitted curve in the direction sought with a large enough effect; inconclusive = small, poorly fitted or top-dose-only effect, or another doubt; inactive = no such curve, though single readings can be large; an effect the other way counts as inactive or inconclusive.

Chains of the proteins cited; added tags and fusions are not shown. Lines headed by an entry give the natural chain unless they say otherwise; changes in a name come on top.
UniProt Q03181: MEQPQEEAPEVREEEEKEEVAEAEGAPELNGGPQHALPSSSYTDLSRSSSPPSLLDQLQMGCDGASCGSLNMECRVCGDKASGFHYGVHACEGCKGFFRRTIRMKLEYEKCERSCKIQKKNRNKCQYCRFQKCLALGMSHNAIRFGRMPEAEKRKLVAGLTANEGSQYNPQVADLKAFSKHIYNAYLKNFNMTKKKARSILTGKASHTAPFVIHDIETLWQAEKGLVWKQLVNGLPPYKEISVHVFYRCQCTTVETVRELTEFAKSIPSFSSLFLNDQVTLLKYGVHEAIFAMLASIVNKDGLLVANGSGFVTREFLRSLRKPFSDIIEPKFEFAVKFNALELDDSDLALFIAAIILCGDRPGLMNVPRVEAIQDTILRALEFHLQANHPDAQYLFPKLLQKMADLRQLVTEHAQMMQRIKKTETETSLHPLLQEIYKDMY
UniProt P19793: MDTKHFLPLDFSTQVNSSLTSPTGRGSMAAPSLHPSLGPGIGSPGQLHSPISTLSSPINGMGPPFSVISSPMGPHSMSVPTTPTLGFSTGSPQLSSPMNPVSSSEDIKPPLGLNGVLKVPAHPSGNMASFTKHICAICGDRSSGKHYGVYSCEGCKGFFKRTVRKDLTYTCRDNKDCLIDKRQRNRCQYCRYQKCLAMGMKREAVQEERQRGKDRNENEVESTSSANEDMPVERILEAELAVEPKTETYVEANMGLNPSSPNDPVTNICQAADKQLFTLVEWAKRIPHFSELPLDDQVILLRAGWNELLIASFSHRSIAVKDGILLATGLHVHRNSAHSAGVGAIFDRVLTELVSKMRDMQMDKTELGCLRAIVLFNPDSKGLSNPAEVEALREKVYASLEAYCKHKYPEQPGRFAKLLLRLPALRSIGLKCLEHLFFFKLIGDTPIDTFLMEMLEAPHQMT
UniProt Q12809: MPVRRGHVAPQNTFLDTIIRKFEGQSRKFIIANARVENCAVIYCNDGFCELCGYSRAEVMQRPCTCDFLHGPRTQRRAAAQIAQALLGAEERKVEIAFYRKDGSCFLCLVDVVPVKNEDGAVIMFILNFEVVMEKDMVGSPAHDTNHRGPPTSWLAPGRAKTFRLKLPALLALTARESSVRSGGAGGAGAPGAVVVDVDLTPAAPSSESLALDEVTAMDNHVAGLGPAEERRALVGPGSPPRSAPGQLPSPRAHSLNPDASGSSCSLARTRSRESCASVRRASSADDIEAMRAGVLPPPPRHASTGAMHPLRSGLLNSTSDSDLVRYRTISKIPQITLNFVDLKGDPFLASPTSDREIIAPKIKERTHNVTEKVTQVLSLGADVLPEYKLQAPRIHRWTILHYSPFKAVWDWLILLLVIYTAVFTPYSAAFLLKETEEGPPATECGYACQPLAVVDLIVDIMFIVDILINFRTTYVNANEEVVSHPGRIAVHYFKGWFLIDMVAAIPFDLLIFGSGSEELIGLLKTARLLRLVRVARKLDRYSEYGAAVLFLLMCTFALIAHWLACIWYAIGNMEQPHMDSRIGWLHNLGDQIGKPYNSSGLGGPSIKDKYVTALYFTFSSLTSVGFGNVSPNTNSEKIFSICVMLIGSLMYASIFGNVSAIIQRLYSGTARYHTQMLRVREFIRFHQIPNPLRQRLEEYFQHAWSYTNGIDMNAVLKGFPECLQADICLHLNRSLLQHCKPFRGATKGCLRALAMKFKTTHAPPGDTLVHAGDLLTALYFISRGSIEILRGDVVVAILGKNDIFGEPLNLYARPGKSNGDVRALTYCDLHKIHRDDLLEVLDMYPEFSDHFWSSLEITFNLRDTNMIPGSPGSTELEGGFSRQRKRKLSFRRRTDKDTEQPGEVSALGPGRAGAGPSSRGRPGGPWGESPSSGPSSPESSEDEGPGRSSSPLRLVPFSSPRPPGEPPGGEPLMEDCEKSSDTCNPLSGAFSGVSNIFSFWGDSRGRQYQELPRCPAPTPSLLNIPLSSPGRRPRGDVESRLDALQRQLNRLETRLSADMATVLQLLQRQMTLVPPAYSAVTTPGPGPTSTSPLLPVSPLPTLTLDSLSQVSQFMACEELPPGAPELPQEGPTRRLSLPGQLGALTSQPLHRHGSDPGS
UniProt P01375, whole entry, looked up: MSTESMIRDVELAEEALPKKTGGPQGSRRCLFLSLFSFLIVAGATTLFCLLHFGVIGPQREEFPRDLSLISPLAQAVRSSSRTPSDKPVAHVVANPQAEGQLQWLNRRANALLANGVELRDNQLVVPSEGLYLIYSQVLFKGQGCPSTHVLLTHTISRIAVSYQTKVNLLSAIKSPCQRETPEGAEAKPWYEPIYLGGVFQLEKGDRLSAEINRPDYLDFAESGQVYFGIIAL
UniProt Q07869: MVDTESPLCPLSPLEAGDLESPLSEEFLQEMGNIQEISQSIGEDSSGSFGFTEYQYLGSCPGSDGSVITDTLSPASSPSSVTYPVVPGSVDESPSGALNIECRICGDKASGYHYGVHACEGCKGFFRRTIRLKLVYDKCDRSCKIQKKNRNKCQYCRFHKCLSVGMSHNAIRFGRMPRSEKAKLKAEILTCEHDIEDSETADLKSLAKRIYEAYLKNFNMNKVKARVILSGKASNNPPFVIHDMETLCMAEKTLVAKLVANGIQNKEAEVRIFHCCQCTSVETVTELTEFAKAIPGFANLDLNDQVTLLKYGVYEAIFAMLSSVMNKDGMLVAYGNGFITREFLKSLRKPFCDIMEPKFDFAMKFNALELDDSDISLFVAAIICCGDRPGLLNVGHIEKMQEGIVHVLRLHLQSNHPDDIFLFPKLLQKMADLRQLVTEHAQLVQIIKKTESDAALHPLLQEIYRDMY
UniProt P51449: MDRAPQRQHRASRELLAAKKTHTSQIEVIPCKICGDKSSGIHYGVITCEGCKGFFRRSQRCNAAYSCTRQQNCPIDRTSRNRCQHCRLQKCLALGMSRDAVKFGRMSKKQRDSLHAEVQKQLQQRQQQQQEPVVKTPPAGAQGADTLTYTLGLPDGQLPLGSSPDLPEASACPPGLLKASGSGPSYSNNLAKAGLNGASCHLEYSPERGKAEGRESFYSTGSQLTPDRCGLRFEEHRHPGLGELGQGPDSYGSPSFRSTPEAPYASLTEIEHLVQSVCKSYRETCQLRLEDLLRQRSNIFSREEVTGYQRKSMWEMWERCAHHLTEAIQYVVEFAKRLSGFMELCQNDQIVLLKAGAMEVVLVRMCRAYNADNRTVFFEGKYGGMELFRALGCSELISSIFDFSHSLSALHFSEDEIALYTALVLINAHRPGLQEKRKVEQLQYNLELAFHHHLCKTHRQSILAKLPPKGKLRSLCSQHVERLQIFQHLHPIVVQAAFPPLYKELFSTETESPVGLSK

Experiments:
[1] = target: Peroxisome proliferator-activated receptor delta (Homo sapiens) (UniProt Q03181); assay: qHTS assay for small molecule antagonists of peroxisome proliferator-activated receptor delta signaling (AID 588535; active = well fitted inhibition curve with a large enough effect in the signal ratio, with a control signal flat, not every such curve was filed as active; the % refers to the signal ratio); settings: HEK293T PPARd-UAS-bla, beta-lactamase FRET ratio, 18 h; at 76.7 µM (top of the series)
[2] = target: Peroxisome proliferator-activated receptor gamma (Homo sapiens) (UniProt P37231); assay: qHTS assay for small molecule antagonists of peroxisome proliferator-activated receptor gamma signaling (AID 588537; active = well fitted inhibition curve with a large enough effect in the signal ratio, with a control signal flat, not every such curve was filed as active; the % refers to the signal ratio;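 note: reporter cells co-stimulated with 50 nM rosiglitazone agonist during compound treatment; % of control where 0% means no effect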); settings: HEK293 PPARg-UAS-bla, beta-lactamase ratio, antagonist mode; at 76.8 µM (top of the series)
In short: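 PPARγ-UAS-bla HEK293 cells (3000/well) in 1% charcoal/dextran-stripped FBS are treated with compound, then stimulated with 50 nM rosiglitazone for 16 h at 37 °C. Read-out is CCF4 β-lactamase fluorescence after 2 h at RT. IC50 comes from Hill fits normalised to rosiglitazone and DMSO.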

[3] = target: Vitamin D3 receptor (Homo sapiens) (UniProt P11473); assay: qHTS assay for small molecule antagonists of vitamin D receptor signaling (AID 588541; calls by dose curve;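 note: receptor activated by calcitriol during compound treatment; % is set by controls: 0 for no effect and ±100 for the full control effect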); settings: HEK293T VDR-UAS-bla, beta-lactamase ratio, antagonist mode; at 76.7 µM (top of the series)
In short: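 VDR-UAS-bla HEK293T cells in 2% charcoal-stripped FBS were stimulated with 1-alpha,25-dihydroxyvitamin D3 (3 nM final) plus compound for 16 h at 37 C. The beta-lactamase CCF4 readout was normalized to 50 nM agonist and DMSO, and Hill fits gave IC50.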

[4] = target: Vitamin D3 receptor (Homo sapiens) (UniProt P11473); assay: qHTS assay for small molecule agonists of vitamin D receptor signaling (AID 588543; calls by dose curve;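 note: 0% = DMSO basal and 100% = reference agonist control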); settings: HEK293T VDR-UAS-bla, beta-lactamase ratio, 16 h; at 76.8 µM (top of the series)
In short: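 β-lactamase reporter, VDR-UAS-bla HEK293T, agonist mode. Cells plated 5 h at 37 °C, compound titration 16 h at 37 °C, CCF4 dye 2 h RT, ratio 460/530 nm. Hill fit → EC50, efficacy vs 50 nM 1α,25-(OH)2D3.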

[5] = target: Retinoic acid receptor RXR-alpha (Homo sapiens) (UniProt P19793); assay: qHTS assay for small molecule antagonists of retinoid X receptor alpha signaling (AID 588546; active = well fitted inhibition curve with a large enough effect in the signal ratio, with a control signal flat, not every such curve was filed as active; the % refers to the signal ratio;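 note: cells stimulated with 9-cis-retinoic acid as agonist; % is set by controls: 0 for no effect and ±100 for the full control effect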); settings: HEK293T RXRa-UAS-bla, beta-lactamase ratio, antagonist mode
In short: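 Beta-lactamase reporter inhibition, read as CCF4 fluorescence ratio (ex 405, em 460/530 nm) after 2 h at RT. HEK293T UAS-bla cells, 2500/well, were stimulated with 9-cis-RA at 500 or 100 nM final alongside test compound for 18 h at 37 C.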

[6] = target: Voltage-gated inwardly rectifying potassium channel KCNH2 (Homo sapiens) (UniProt Q12809); assay: qHTS Assay for Small Molecule Inhibitors of the Human hERG Channel Activity (AID 588834); settings: U2OS BacMam hERG, FluxOR thallium flux fluorescence; at 46.1 µM (top of the series) unless noted;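 note: U2OS cells transduced with hERG by BacMam; top concentration of the series differs between compounds; % is set by controls: 0 for no effect and ±100 for the full control effect; lower thallium flux fluorescence means stronger hERG block; nearly all actives have a fitted effect of over 50% in size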
[7] = S16 Schwann cell viability assay (CellTiter-Glo assay) (AID 624031); settings: S16 rat Schwann cells viability, 24 h; at 57.5 µM (top of the series);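 note: native untransfected S16 rat Schwann cells; plate controls were DMSO-treated cells for no effect and cell-free wells for full effect; nearly all actives have a fitted effect of over 70% in size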
In short: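 Counter-screen for cytotoxicity: parental S16 rat Schwann cells lacking the PMP22 reporters, treated 24 h with compound, viability from cellular ATP by CellTiter-Glo luminescence, normalized to DMSO (0%) and no-cell wells.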

[8] = S16 Schwann cell PMP22 intronic element firefly luciferase assay (AID 624032); settings: S16 rat Schwann cells, PMP22 element FLuc, 24 h; at 57.5 µM (top of the series);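 note: plate controls were DMSO for no effect and PTC124 positive control mean for full effect; nearly all actives have a fitted effect of over 30% in size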
[9] = qHTS assay for small molecule activators of the p53 signaling pathway (AID 651743; active = well fitted activation curve with a large enough effect in the signal ratio, not every such curve was filed as active; the % refers to the signal ratio; note: % of control where 0% means no effect); settings: HCT-116 p53RE-bla, beta-lactamase FRET ratio, 16 h; activation: hits give high values
[10] = target: Tumor necrosis factor (Homo sapiens) (UniProt P01375); assay: qHTS assay to identify small molecules that stimulate Tumor Necrosis Factor-alpha (TNF-alpha) secretion (AID 651757; active = well fitted curve in the direction sought with a large enough effect in the signal ratio; the % refers to the signal ratio; note: 0% is about no effect); settings: Human cells, HTRF 665/615 ratio; at 92.2 µM (top of the series)
In short: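 Read-out is HTRF, a TR-FRET sandwich of cryptate- and XL665-labeled anti-TNF-alpha antibodies detecting cytokine secreted by THP-1 cells. Cells had been incubated with test compounds at 37 C for 17 hrs beforehand.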

[11] = qHTS assay for environmental chemicals that activate the Aryl hydrocarbon Receptor (AhR) signaling pathway (AID 651777); settings: 1A2-DRE human hepatoma cells, luciferase, 24 h; hits give high values; note: % of control where 0% means no effect; nearly all actives have a fitted effect of over 15% in size
In short: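 Quantitative HTS in stably transfected human liver-derived cells whose luciferase gene sits downstream of the CYP1A2 promoter and dioxin response element. After 24 hr exposure at 37 C, One-Glo luminescence was measured.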

[12] = target: Peroxisome proliferator-activated receptor alpha (Homo sapiens) (UniProt Q07869); assay: qHTS assay for small molecule agonists of the peroxisome proliferator-activated receptor alpha (PPARalpha) signaling pathway (AID 651778); settings: PathHunter PPARalpha complementation, chemiluminescence, 6 h; hits give high values; note: % of control where 0% means no effect
[13] = target: Nuclear receptor ROR-gamma (Homo sapiens) (UniProt P51449); assay: qHTS assay for small molecule antagonists of the retinoid-related orphan receptor gamma (ROR-gamma) signaling pathway (AID 651802);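 note: CHO cells with doxycycline-induced ROR-gamma expression; luciferase reporter luminescence driven by ROR response element; % is set by controls: 0 for no effect and ±100 for the full control effect; nearly all actives have a fitted effect of over 60% in size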
[14] = qHTS assay for small molecule agonists of the antioxidant response element (ARE) signaling pathway measured by Nrf2-dependant transcriptional activity (AID 720636; active = well fitted curve in the direction sought with a large enough effect in the repeat runs; an effect the other way counts as inactive or inconclusive;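 note: HepG2 cells with an ARE-driven luciferase reporter; % of control where 0% means no effect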); settings: ARE-luc HepG2, Nrf2 luciferase reporter, 16 h; at 92.4 µM (top of the series)
[15] = qHTS assay for small molecule antagonists of the retinoid-related orphan receptor gamma (ROR-gamma) signaling pathway - cell viability counter screen (AID 720652; active = well fitted curve in the direction sought with a large enough effect in the repeat runs; an effect the other way counts as inactive or inconclusive;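 note: CHO reporter cells with doxycycline-induced ROR-gamma expression; compound exposure lasted 16 hr before ATP read; % is set by controls: 0 for no effect and ±100 for the full control effect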); settings: RORgamma reporter cell line viability counter screen; at 92.2 µM (top of the series)
[16] = qHTS assay for small molecule agonists of the antioxidant response element (ARE) signaling pathway measured by Nrf2-dependant transcriptional activity - cell viability counter screen (AID 720653; active = well fitted curve in the direction sought with a large enough effect in the repeat runs; an effect the other way counts as inactive or inconclusive; note: % is set by controls: 0 for no effect and ±100 for the full control effect); settings: ARE-bla HepG2 viability, CellTiter-Glo ATP luminescence, 16 h; hits give low values
In short: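 ARE-bla HepG2 cells treated with compounds for 16 h at 37C; this counter screen measures viability as intracellular ATP by CellTiter-Glo luminescence after 30 min at room temperature.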

[17] = qHTS Assay for Identifying Gametocytocidal Compounds (AID 743244);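 note: % is set by controls: 0 for no effect and ±100 for the full control effect; actives lower the fluorescent signal which means gametocytes are killed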; settings: P. falciparum 3D7 stage III-V gametocytes, alamarBlue, 72 h; max response: hits give low values
[18] = qHTS assay for cell viability of HEK293 cells (AID 743288); settings: ATP luminescence (CellTiter-Glo), 18 h; max response: hits give low values; note: % is set by controls: 0 for no effect and ±100 for the full control effect; nearly all actives have a fitted effect of over 50% in size
In short: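 Environmental chemicals tested in qHTS format against parental HEK293 cells; 18 h treatment, 37 C; read-out ATP luminescence (CellTiter-Glo), 30 min RT development.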

[19] = qHTS assay for cell viability of the p53RE-bla HCT-116 cell line (AID 743292); note: % is set by controls: 0 for no effect and ±100 for the full control effect; nearly all actives have a fitted effect of over 55% in size
In short: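 Viability of compound-treated p53RE-bla HCT-116 cells is taken from ATP-dependent luciferase luminescence. Treatment lasts 16 h at 37 C after a 5 h settling period; detection follows 30 min at room temperature.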

[20] = qHTS assay to identify small molecule inhibitors of chordoma cells - UCH-1 (AID 1259355); settings: UCH-1 chordoma viability, CellTiter-Glo, 48 h, combination, with auranofin plus four topoisomerase inhibitors; at 46.1 µM (top of the series); note: % is set by controls: 0 for no effect and ±100 for the full control effect; nearly all actives have a fitted effect of over 55% in size
In short: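 Cells (800/well) were seeded and left overnight at 37 C, 5% CO2, then treated with drugs at 15 concentrations plus a combination mix of auranofin, camptothecin, doxorubicin, rubitecan and topotecan. Viability after 48hr was read by CellTiter-Glo luminescence.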

[21] = qHTS assay to identify small molecule inhibitors of chordoma cells - UCH-2 (AID 1259356); settings: UCH-2 chordoma viability, CellTiter-Glo ATP luminescence, 48 h; at 46.1 µM (top of the series); note: % is set by controls: 0 for no effect and ±100 for the full control effect
[22] = P-glycoprotein substrates identified in KB-8-5-11 adenocarcinoma cell line, qHTS therapeutic library screen (AID 1346987); settings: KB-8-5-11 (P-gp overexpressing) viability, CellTiter-Glo, 72 h; at 44.5 µM (top of the series) unless noted; note: % is set by controls: 0 for no effect and ±100 for the full control effect; nearly all actives have a fitted effect of over 65% in size
[23] = qHTS of pediatric cancer cell lines to identify multiple opportunities for drug repurposing: Primary screen for TC32 cells (AID 1347089); settings: TC32 Ewing sarcoma viability, CellTiter-Glo luminescence, 48 h; at 45.8 µM (top of the series) unless noted; note: % is set by controls: 0 for no effect and ±100 for the full control effect; nearly all actives have a fitted effect of over 60% in size
[24] = qHTS of pediatric cancer cell lines to identify multiple opportunities for drug repurposing: Primary screen for DAOY cells (AID 1347090);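 note: plate controls were DMSO for no effect and bortezomib for full effect; nearly all actives have a fitted effect of over 55% in size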
[25] = qHTS of pediatric cancer cell lines to identify multiple opportunities for drug repurposing: Primary screen for SJ-GBM2 cells (AID 1347091); settings: SJ-GBM2 viability, CellTiter-Glo luminescence, 48 h; at 46 µM (top of the series) unless noted;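 note: plate controls were DMSO neutral control for no effect and bortezomib for full effect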
[26] = qHTS of pediatric cancer cell lines to identify multiple opportunities for drug repurposing: Primary screen for A673 cells (AID 1347092); settings: A673 Ewing sarcoma viability, CellTiter-Glo ATP luminescence, 48 h; at 46 µM (top of the series) unless noted; note: % is set by controls: 0 for no effect and ±100 for the full control effect; nearly all actives have a fitted effect of over 45% in size
[27] = qHTS of pediatric cancer cell lines to identify multiple opportunities for drug repurposing: Primary screen for SK-N-MC cells (AID 1347093); settings: SK-N-MC viability, CellTiter-Glo luminescence, 48 h; at 46 µM (top of the series) unless noted;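 note: plate controls were DMSO neutral control for no effect and bortezomib for full effect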
[28] = qHTS of pediatric cancer cell lines to identify multiple opportunities for drug repurposing: Primary screen for BT-37 cells (AID 1347094); settings: BT-37 viability, CellTiter-Glo luminescence, 48 h; at 57.3 µM (top of the series) unless noted;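 note: plate controls were DMSO for no effect and bortezomib for full effect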
[29] = qHTS of pediatric cancer cell lines to identify multiple opportunities for drug repurposing: Primary screen for NB-EBc1 cells (AID 1347095); settings: NB-EBc1 neuroblastoma viability, CellTiter-Glo luminescence, 48 h; at 46 µM (top of the series) unless noted;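 note: plate controls were DMSO neutral control for no effect and bortezomib for full effect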
[30] = qHTS of pediatric cancer cell lines to identify multiple opportunities for drug repurposing: Primary screen for U-2 OS cells (AID 1347096); settings: U-2 OS viability, CellTiter-Glo luminescence, 48 h; at 46 µM (top of the series) unless noted;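 note: plate controls were DMSO wells for no effect and bortezomib positive control wells for full effect; nearly all actives have a fitted effect of over 50% in size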
[31] = qHTS of pediatric cancer cell lines to identify multiple opportunities for drug repurposing: Primary screen for Saos-2 cells (AID 1347097); settings: Saos-2 viability, CellTiter-Glo ATP luminescence, 48 h; at 46 µM (top of the series) unless noted; note: % is set by controls: 0 for no effect and ±100 for the full control effect; nearly all actives have a fitted effect of over 40% in size
[32] = qHTS of pediatric cancer cell lines to identify multiple opportunities for drug repurposing: Primary screen for SK-N-SH cells (AID 1347098); settings: SK-N-SH viability, CellTiter-Glo luminescence, 48 h; at 57 µM (top of the series) unless noted;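 note: DMSO served as neutral control and bortezomib at 2.3 µM as positive control; % is set by controls: 0 for no effect and ±100 for the full control effect; nearly all actives have a fitted effect of over 65% in size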

NC(=O)Nc1ccc([As](=O)(O)O)cc1
inactive: activity change, negative = inhibition [1] -18.4% | activity, negative = inhibition [2] 9.61% | activity change, negative = inhibition [3] 3.51% | activation [4] -0.342% | max response [5] 5.1% | activity change, negative = inhibition [6] 0.429% [at 92.2 µM] | activity change, negative = cytotoxicity [7] 8.8% | activity change, negative = inhibition [8] 0.369% | activation [9] 1.05% | activation (TNF-alpha secretion) [10] 0.929% | activation [11] 0.519% | max response [12] -1.01% | Potency [13] | activation [14] -0.823% | activity change, negative = cytotoxicity [15] -2.84% | max response [16] -1.29% | max response [17] -3.38% | max response [18] -3.22% | Potency [19] | activity, negative = inhibition [20] -20.9% | activity change, negative = inhibition [21] 0% | activity change, negative = cytotoxicity [22] -3.56% | activity change, negative = cytotoxic [23] 3.98% | Potency [24] | activity change, negative = cytotoxic [25] 22.7% | activity change, negative = cytotoxic [26] 12% | activity change, negative = cytotoxic [27] -5.53% | activity change, negative = cytotoxic [28] 0.562% | activity change, negative = cytotoxic [29] 10.2% | activity change, negative = cytotoxic [30] 3.14% | activity change, negative = cytotoxic [31] 7.05% | activity change, negative = cytotoxic [32] -7.76%
